Measured values published in patent US9803021B2 (The Regents of the University of California, priority 2012, dated 2017).

Columns and labels:
Assay in all cases: Cell cycle analysis (PI DNA content, flow cytometry)
Type in all cases: cell-based, human
ANBL-6 = settings: ANBL-6, 500 pM, 4 days
Description: (§1) Cells were incubated with 1 ml of hypotonic DNA staining buffer (1 mg/ml sodium citrate, 100 μg/ml PI, 20 μg/ml RNase A, and 0.3% Triton X-100 in dH2O) for 30-60 min at 4° C. in the dark. Cells were analyzed by flow cytometry and cell cycle analysis performed using FlowJo software with the Watson Model.
(§2) Cells were incubated with 1 ml of hypotonic DNA staining buffer (1 mg/ml sodium citrate, 100 μg/ml PI, 20 μg/ml RNase A, and 0.3% Triton X-100) for 30-60 minutes at 4° C. in the dark. Cells were analyzed by flow cytometry and cell cycle analysis performed using FlowJo software with the Watson Model.

MM1-144 = settings: MM1-144, 500 pM, 4 days
Description: as §1, §2

U266 = settings: U266, 500 pM, 4 days
Description: as §1, §2

OCI-My5 = settings: OCI-My5, 500 pM, 4 days
Description: as §1, §2

NCI-H929 = settings: NCI-H929, 500 pM, 4 days
Description: as §1, §2

B1: IFNβ: recombinant interferon beta, unfused (protein, UniProt P01574 22-187, looked up)
Interferon beta: MSYNLLGFLQRSSNFQCQKLLWQLNGRLEYCLKDRMNFDIPEEIKQLQQFQKEDAALTIYEMLQNIFAIFRQDSSSTGWNETIVENLLANVYHQINHLKTVLEEKLEKEDFTRGKLMSSLHLKRYYGRILHYLKAKEYSHCAWTIVRVEILRNFYFINRLTGYLRN
With B1 the “% G1” value (ANBL-6) was 60.5%, the “% G2/M” value (ANBL-6) was 18.8% and the “% S” value (ANBL-6) was 15.4%. The “>G2” value (ANBL-6) was 0.0%, the “Sub G0/G1” value (ANBL-6) was 26.1% and the “% G1” value (MM1-144) was 29.0%. The “% G2/M” value (MM1-144) was 26.7%, the “% S” value (MM1-144) was 33.7% and the “>G2” value (MM1-144) was 8.6%. The “Sub G0/G1” value (MM1-144) was 11.7%, the “% G1” value (U266) was 58.7% and the “% G2/M” value (U266) was 20.1%. The “% S” value (U266) was 12.4%, the “>G2” value (U266) was 7.1% and the “Sub G0/G1” value (U266) was 17.0%. For the same molecule, the “% G1” value (OCI-My5) was 21.8%, the “% G2/M” value (OCI-My5) was 19.0% and the “% S” value (OCI-My5) was 54.2%. The “>G2” value (OCI-My5) was 0.0%, the “Sub G0/G1” value (OCI-My5) was 29.5% and the “% G1” value (NCI-H929) was 41.2%. The “% G2/M” value (NCI-H929) was 23.4%, the “% S” value (NCI-H929) was 22.1% and the “>G2” value (NCI-H929) was 7.8%. The “Sub G0/G1” value (NCI-H929) was 37.4%.
